Here are results for two substances from patent US20230114865A1, “PHENYL PYRROLE AMINOGUANIDINE SALTS AND FORMULATIONS” (SYNACT PHARMA APS, priority 2021, published 2023).

Marks after values point to notes of the source that are not given here.

Data set [1] can be described thus: Thermodynamic solubility of AP1189 salts in 0.2 M or 0.5 M buffer solutions, 24 hr, HPLC. Conditions: as freebase.
The conditions of data set [2]: 37° C, buffer pH 6.8, 22 h.
[3] abbreviates: 0.2 M buffer pH 1.2, ambient temperature.

For the substance “(E)-N-[1-(2-nitrophenyl)-1-H-pyrrole-2-yl-allylideneamino]-guanidinium acetate [AP1189 acetate]”, the “Solubility at 24 h (mM freebase)” value came to 134.10 mM in data set [1] (setting [3]) and 2.23 mM in data set [1] (0.2 M buffer pH 4.5, ambient temperature).

With “(E)-N-[1-(2-nitrophenyl)-1-H-pyrrole-2-yl-allylideneamino]-guanidinium succinate [AP1189 succinate]”, the “Solubility at 24 h (mM freebase)” value in data set [1] (setting [3]) is >36.26** mM. In addition, the “equilibrium solubility pH 6.8” value in data set [2] is recorded as 2.5 mM ± 0.1 mM (22 h).

What is called Solubility is the concentration that dissolves in the medium under given conditions.
